In ChEMBL document CHEMBL3769398 (J Med Chem, 2016):

Molecular target: T1, Protein deacetylase HDAC6 (Homo sapiens, UniProt Q9UBN7)
T1 sequence (Q9UBN7 whole entry): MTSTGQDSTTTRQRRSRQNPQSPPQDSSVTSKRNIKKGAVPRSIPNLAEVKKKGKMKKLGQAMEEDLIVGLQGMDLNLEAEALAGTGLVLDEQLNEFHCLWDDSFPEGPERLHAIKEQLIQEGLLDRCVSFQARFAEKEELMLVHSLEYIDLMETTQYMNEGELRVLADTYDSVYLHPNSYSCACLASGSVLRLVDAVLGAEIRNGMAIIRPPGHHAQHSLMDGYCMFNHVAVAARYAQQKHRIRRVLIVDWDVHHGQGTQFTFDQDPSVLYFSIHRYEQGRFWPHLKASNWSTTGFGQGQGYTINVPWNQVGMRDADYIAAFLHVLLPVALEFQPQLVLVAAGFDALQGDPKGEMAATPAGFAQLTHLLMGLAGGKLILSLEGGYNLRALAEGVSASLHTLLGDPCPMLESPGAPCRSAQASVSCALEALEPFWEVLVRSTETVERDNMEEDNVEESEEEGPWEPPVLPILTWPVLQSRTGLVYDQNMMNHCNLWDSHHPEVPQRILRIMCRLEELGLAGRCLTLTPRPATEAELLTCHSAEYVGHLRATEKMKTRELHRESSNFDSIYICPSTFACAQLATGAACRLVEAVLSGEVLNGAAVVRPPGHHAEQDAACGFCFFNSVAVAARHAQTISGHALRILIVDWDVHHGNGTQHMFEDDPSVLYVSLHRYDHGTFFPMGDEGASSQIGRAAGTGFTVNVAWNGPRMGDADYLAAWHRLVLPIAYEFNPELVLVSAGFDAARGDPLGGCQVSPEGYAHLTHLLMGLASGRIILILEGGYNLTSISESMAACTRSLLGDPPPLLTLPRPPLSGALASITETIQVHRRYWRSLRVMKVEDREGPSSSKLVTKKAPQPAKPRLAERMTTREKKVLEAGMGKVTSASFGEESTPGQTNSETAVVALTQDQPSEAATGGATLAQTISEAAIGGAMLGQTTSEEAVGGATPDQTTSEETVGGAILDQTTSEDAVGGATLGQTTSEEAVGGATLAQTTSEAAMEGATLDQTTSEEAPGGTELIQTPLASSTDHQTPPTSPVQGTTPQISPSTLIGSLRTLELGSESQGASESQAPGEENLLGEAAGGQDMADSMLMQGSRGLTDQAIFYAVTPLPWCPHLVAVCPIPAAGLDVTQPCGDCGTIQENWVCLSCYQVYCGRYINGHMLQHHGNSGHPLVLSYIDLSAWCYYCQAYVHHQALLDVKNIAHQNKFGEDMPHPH
Assay: Inhibition of recombinant human KDAC6 using FITC-histone 4 acetylated peptide substrate incubated for 60 mins by microfluidic chip-based assay

CC(C)[C@@H]1NC(=O)[C@@H]2CCCN2C(=O)[C@H]2CCCN2C(=O)C[C@@H](C(=O)NCCCC(=O)NO)NC1=O
IC50: 5.07 µM
